Reference: BindingDB's records for PubMed 8450829 (Cnrs, 1993)

The chains behind the UniProt entries cited, without tags or fusion partners.
UniProt P31387, whole entry: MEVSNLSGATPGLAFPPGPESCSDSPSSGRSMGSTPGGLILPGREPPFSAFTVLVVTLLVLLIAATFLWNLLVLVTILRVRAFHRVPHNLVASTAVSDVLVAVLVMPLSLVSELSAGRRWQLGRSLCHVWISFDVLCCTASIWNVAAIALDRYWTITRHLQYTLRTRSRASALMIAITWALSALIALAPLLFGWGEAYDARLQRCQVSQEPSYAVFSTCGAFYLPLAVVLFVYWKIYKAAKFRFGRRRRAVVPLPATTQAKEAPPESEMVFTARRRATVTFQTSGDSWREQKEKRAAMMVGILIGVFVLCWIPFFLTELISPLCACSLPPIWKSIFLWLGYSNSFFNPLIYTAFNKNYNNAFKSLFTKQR

Target: 5-hydroxytryptamine receptor 5B (Mus musculus, UniProt P31387)

`COC(=O)[C@@H]1[C@H]2C[C@H]3c4[nH]c5ccccc5c4CCN3C[C@@H]2CC[C@@H]1O` [yohimbic acid methyl ester] showed a Ki of 1000 nM.
